The record followed here is patent US11312682B2, “Selective inhibitors of carbonic anhydrase” (VILNIUS UNIVERSITY, priority 2015, dated 2022).

This assay has as its target human recombinant CA II (Homo sapiens, UniProt P00918). The experiment in a line: Fluorescent thermal shift assay (FTSA), binding to CA II. To be noted: Table 1; FTSA at 37° C. and pH 7.0; read-out: Dissociation constants, CA II.

Take “2,4-dichloro-5-[2-(5-methoxybenzimidazol-1-yl)acetyl]benzenesulfonamide and 2,4-dichloro-5-[2-(6-methoxybenzimidazol-1-yl)acetyl]benzenesulfonamide [Compound 31]”: the Kd amounted to 0.5 µM.
